Target: Aldo-keto reductase family 1 member B1 (Homo sapiens, UniProt P15121)
Assay: Inhibition of recombinant AKR1B1 assessed as NADPH dependent reduction of DL-glyceraldehyde by fluorescence assay

`O=C(O)Cc1nn(Cc2nc3cc(C(F)(F)F)ccc3s2)c(=O)c2ccccc12` [ZOPOLRESTAT] gave an IC50 of 0.027 µM.

— ChEMBL document CHEMBL2040753, “Development of potent and selective inhibitors of aldo-keto reductase 1C3 (type 5 17β-hydroxysteroid dehydrogenase) based on N-phenyl-aminobenzoates and their structure-activity relationships” (J Med Chem, 2012)
